Assay results published in patent US7754220B2, “Methods of inhibiting secretion of follicle-stimulating hormone and testosterone” (Takeda Pharmaceutical Company Limited, priority 2003, dated 2010).

Columns and labels:
Type in all cases: in vivo, rat
immature rats = test: Induction of ovulation in immature rats (number of ova); conditions: Group A: hCG 20 IU/animal s.c.
Protocol: (§1) Equine chorionic gonadotropin (eCG, Serotropin, Dainippon Pharmaceutical Co., Ltd.) was dissolved in physiological saline (Otsuka Pharmaceutical Co., Ltd.) in 100 IU/mL. From 9:30 to 10:00 AM, female Wistar rats of 23 days old after birth (Nippon Charles River) received 10 IU of eCG per animal subcutaneously in the back through a 1 mL tuberculin syringe with a 26 gauge needle (both by Terumo). The rats were assigned to the following groups 47 to 48 hours after the administration of eCG, to each of which groups a drug was given.
Group A (five rats): Human chorionic gonadotropin (hCG, Gonadotropin, Dainippon Pharmaceutical Co., Ltd.) was dissolved in physiological saline in 100 IU/mL and 20 IU/animal was subcutaneously administered in the back.
Group B (five rats): Human metastin was dissolved in physiological saline in 100 nmol/mL and 20 nmol/animal was subcutaneously administered in the back. […]
The number of ova was counted as follows.
Where retained ova in the ampulla of uterine tube were confirmed by stereomicroscopic observation of the uterine tube, the ampulla was punctured with a 27-gauge syringe needle (Terumo) to retrieve the ova. After granulosa cells surrounding the ova were removed by trypsin treatment, the number of ova was counted. […]

estradiol = test: Level of estradiol in plasma by radioimmunoassay, ovulation induction study; conditions: Group A: hCG 20 IU/animal s.c., eCG-primed immature rats, 24-25 h after dosing; FIG. 1
Protocol: as §1
(§2) After administration of the drug described above, the animals were sacrificed after additional 24 to 25 hours by decapitation to collect blood, bilateral uterine tubes and uterus. Before blood collection, 90 μL of 10 KIU/mL aprotinin solution (Trasylol, Bayer) supplemented with 3 mg /mL EDTA was previously filled in a centrifuging tube for collection to prevent blood clotting. After the blood collection, the blood was thoroughly stirred and centrifuged at 2,000 G for 25 minutes. The supernatant was recovered and used as a plasma sample.
The level of estradiol contained in plasma collected from the rats shown in Table 1 was determined by radioimmunoassay (DPC-Estradiol Kit; Diagnostic Products Corporation).

progesterone = test: Level of progesterone in plasma by radioimmunoassay, ovulation induction study; conditions: Group A: hCG 20 IU/animal s.c., eCG-primed immature rats, 24-25 h after dosing; FIG. 2
Protocol: as §1, §2
The level of progesterone contained in plasma was determined by radioimmunoassay (DPC.Progesterone; Diagnostic Products Corporation).

## hCG: Human chorionic gonadotropin (hCG, Gonadotropin, Dainippon Pharmaceutical Co., Ltd.), conventional ovulation inducer used as comparator
Immature rats; 47-48 h after eCG 10 IU, ova counted 24-25 h later, individual rats 1-5
  number of ova: 36 and 35 (2×) and 40 and 42
Immature rats; eCG-primed immature female Wistar rats, five rats
  Average number of ova: 37.6
estradiol
  level of estradiol contained in plasma: no difference; also recorded: decreased
progesterone
  level of progesterone contained in plasma: the highest; also recorded: increased

Where “and” joins values, the source holds several entries; their conditions need not be identical. Equal entries are not always repeated. Entries after “also recorded” stand apart in the source; their conditions may differ.
